How the values were obtained:
Assay type in all cases: cell-based
Staphylococcus aureus = assay: agar-dilution MIC
[1] = test system: Peptostreptococcus anaerobius; assay: agar-dilution MIC; conditions: Ps. anaerobius 8; Table 15
Procedure: The MIC values were determined by the agar-dilution method, and are recorded in Table 15, which follows.

Clostridium difficile = Clostridium difficile A-280; Table 16
Text: The A41030 antibiotic factors A, B, C, D, E, F, and G, are also active against a number of strains of Clostridium difficile, as determined by the agar-dilution method.

[2] = Staphylococcus aureus S13E, Table 17

| Substance | MIC (Staphylococcus aureus; [2]) [µg/mL] | MIC [1] [µg/mL] | MIC (Staphylococcus aureus; in µg/mL) | MIC (Clostridium difficile) [µg/mL] |
| --- | --- | --- | --- | --- |
| A41030 factor C | 0.5 | 0.5 | – | – |
| A41030 factor G | 1 | – | 0.5 | 1.0 |
